The values that follow come from article PMC6245477, “Discovery of a Novel CCR5 Antagonist Lead Compound Through Fragment Assembly” (Molecules, 2008).

Protein sequences, listed by entry. Tags and fused reporters are not part of them.
UniProt P51681, whole entry: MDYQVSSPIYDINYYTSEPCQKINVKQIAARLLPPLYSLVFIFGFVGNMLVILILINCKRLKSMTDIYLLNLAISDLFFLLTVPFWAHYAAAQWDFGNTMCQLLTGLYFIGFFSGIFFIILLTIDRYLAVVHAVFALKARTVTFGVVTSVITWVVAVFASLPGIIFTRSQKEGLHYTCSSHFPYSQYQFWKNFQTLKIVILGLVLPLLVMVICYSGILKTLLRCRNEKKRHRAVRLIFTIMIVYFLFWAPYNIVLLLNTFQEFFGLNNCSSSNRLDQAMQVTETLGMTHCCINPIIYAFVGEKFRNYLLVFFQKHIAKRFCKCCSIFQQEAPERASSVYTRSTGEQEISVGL

The experiment addresses T1, CCR5 (Homo sapiens, UniProt P51681).
T1 construct: expressed in transfected cells
Nature of the experiment: Calcium mobilization assay (RANTES-induced, Fluo-4 AM). The experiment is classed as cell-based. The settings on record: CHO cells stably expressing CCR5 and Gα16; RANTES 30 nM; read-out: IC50 (antagonistic activity against CCR5). As to the method: For the primary assay, the percent inhibitory rates of the compounds 1, 2 and 2a-l at 1 μM were measured. Except compounds 2a and 2c, the other twelve compounds were remarkably antagonist of CCR5 activity. Therefore, we determined their IC50 values (Table 1).
CHO cells stably expressing CCR5 and Gα16 were loaded with 2 μmol/L Fluo-4 AM in Hanks balanced salt solution (HBSS, containing KCl 5.4 mM, Na2HPO4 0.3 mM, KH2PO4 0.4 mM, NaHCO3 4.2 mM, CaCl2 1.3 mM, MgCl2 0.5 mM, Mg2SO4 0.6 mM, NaCl 137 mM, BSA 5 g/L, Glucose 5.6 mM, Sulfinpyrazone 250 μM, pH 7.4) at 37 °C for 45 minutes. After the cells being rinsed with the reaction buffer, 50 μL HBSS containing known antagonists (positive control), compounds of interest or DMSO (negative control, final concentration 1%) were added. After incubation at room temperature for 10 minutes, 25 μL RANTES (final concentration 30 nM) was dispensed into the well using a FlexStation II micro-plate reader (Molecular Devices, Sunnyvale, CA, USA) and intracellular calcium change was recorded with an excitation wavelength of 485 nm and emission wavelength of 525 nm. The half maximal inhibitory concentrations (IC50s) of compounds were determined with GraphPad Prism software by constructing their dose-response curves.

As for maraviroc [reference compound], the concentration for half-maximal inhibition (IC50) is 2.61 nM.
